{
  "source": "paper doi:10.1101/2025.02.26.640323",
  "about": "“Aggregation-Dependent Epitope Sequence and Modification Fingerprints of Anti-Aβ Antibodies” (bioRxiv, 2025)",
  "format_in_all_cases": "binding",
  "key": {"[1]": {"tested_on": "endogenous soluble Aβ in pooled human CSF", "test": "IP-MS from pooled human CSF", "details": "250 μL pooled human CSF, CHCA matrix; two replicate measurements each from two independent immunoprecipitations", "experimental": "However, synthetic Aβ peptides may display different properties than authentic Aβ peptides in biological samples, such as human cerebrospinal fluid (CSF). […] To test whether Lecanemabbs was able to immunoprecipitate endogenous soluble Aβ from a relevant biological sample, we repeated the Lecanemabbs IP-MS experiment with 250 μL of pooled CSF. […] This was in contrast to the binding data from array and BLI towards the minimal monovalent epitopes (Figure 3 – figure supplement 2 and 3).\nAntibodies were covalently coupled to Dynabeads M-270 Epoxy (Invitrogen/ThermoFisher Scientific, Waltham, Massachusetts, USA Cat. No. 14311 D), essentially following the manufacturer’s instructions. Tween-20 was omitted from all wash and storage buffers for specific use in IP-MS. In brief, 5 mg of M-270 epoxy beads were weighed into a 1.5-mL reaction vial and washed with 1 mL of buffer C1 (kit component). The bead suspension was divided in aliquots of 200 μL (containing 1mg of beads). The vials were placed on a magnetic stand for a few minutes, and the supernatant was carefully removed and discarded. […]\nAnalysis by MALDI-TOF-MS was essentially performed as described. […] The samples were dried in a vacuum desiccator and a total of 5000 mass spectra per spot were recorded using an ultrafleXtreme MALDI-TOF/TOF mass spectrometer in reflector mode operated under the software flexControl 3.4 (Bruker, Bremen, Germany)."}, "[2]": {"tested_on": "Aβ1–42 monomer, oligomer and fibril preparations; AβpE3–40", "test": "Bistris-SDS gradient PAGE/Western blot", "details": "4–12% Bistris SDS-PAGE/Western blot, nitrocellulose", "experimental": "No SPR-487B) (StressMarq biosciences, Victoria, BC, Canada). The samples for electrophoresis were prepared (starting from stock solutions) with final concentrations of 0.1 μg/μL) in LDS sample buffer (247.5 mM Tris-HCl, pH 8.5, 2% (w/v) lithium dodecyl sulfate (LDS), 10% (v/v) glycerol, 0.5 mM EDTA, 0.22 mM Brilliant Blue G250, 0.175 mM Phenol Red) and denatured by heating at 70°C for 10 min. […] The prechilled transfer buffer contained 25 mM Tris, 192 mM glycine, 20% (v/v) methanol and 0.0375 % Tween-20. After blotting, the membrane was washed for 10 min at room temperature in Tris-buffered saline (TBS) followed by blocking for 30 min with 5% powdered milk in TBS containing 0.1% Tween-20 (TBS-T). The blots were then incubated with primary antibodies in 5% milk in TBS-T over night at 4°C and washed 3 × for 10 min with TBS-T at room temperature. […] After 1 h incubation with the secondary antibodies, the blots were washed 3 × for 10 min with TBS-T and incubated for 5 min with ECL-Prime Western Blotting Detection Reagent (Cytiva Amersham, Little Chalfont, England). Images were recorded on a Vilber-Loumart Fusion SL blot imager. […] That way, the 4G8 reprobing signals were essentially added on top of the initial signals and background artifacts."}, "[3]": {"tested_on": "synthetic Aβ peptide variants", "test": "Capillary isoelectric focusing (CIEF) immunoassay", "details": "data not shown", "experimental": "Automated capillary isoelectric focusing immunoassays were performed with a Peggy-Sue system (ProteinSimple,San Jose, California, USA), essentially as previously described and [53].\nIn brief, synthetic Aβ peptide variants were separated by isoelectric focusing in microcapillaries followed by photochemical immobilization to the inner capillary walls and probing with the primary antibodies for 120 min. After 2 washes, the horseradish peroxidase conjugated secondary antibodies were loaded and incubated for 60 min. After two washing steps, a luminol/peroxide mix was loaded, and chemiluminescent signals were recorded. The data was analyzed with the Compass for SW software. The following secondary antibodies were used: Anti-human IgG Secondary HRP antibody (Protein Simple, catalog number 043–491), Goat-Anti-Mouse-HRP Secondary Antibody ProteinSimple, catalog number 040–655) and Peroxidase-conjugated Affini Pure Donkey Anti-Human IgG (H+L) (1:100 dilution) (Jackson ImmunoResearch Laboratories Inc., West Grove, PA, code number 709–035-149)."}},
  "note": "“Also recorded” adds a separate entry of the source.",
  "data": [
    {"substance": "Aducanumabbs: human monoclonal, biosimilar of Aducanumab, Proteogenix (#PX-TA1335)", "values": [
      {"measurement": "immunoprecipitation of endogenous Aβ from CSF", "setting": "[1]", "value": "but not Aducanumabbs immunoprecipitated authentic biological Aβ peptides from pooled human CSF; also recorded: did not produce any Aβ signals"},
      {"measurement": "detection of fibrillar Aβ1–42", "setting": "[2]", "value": "clearly detected highly aggregated fibrillar Aβ1–42"},
      {"measurement": "reproducibility of signals, CIEF-immunoassay", "setting": "[3]", "value": "substantial variances"}
    ]}
  ]
}
